Data reported in patent US10577610B2, “EpCAM aptamers and conjugates thereof” (Deakin University, priority 2015, dated 2020).
Read-outs that look alike come from different tables or passages of the source.

Experiments:
[1] = Experimental: NOD/SCID mice received a single i.v. injection of 40 nmol/Kg of transferrin/EpCAM aptamer with four various structures (TEPP: Bi3 transferrin^+/EpCAM^+; TEPN: transferrin^+/EpCAM^−; TENP: transferrin^−/EpCAM^+; TENN: Bi1 transferrin^−/EpCAM^−). The concentration of aptamers, expressed as % of injected dose (ID) per mg of tissue, in tissues indicated was determined at 30 min and 60 min after the agent administration using ELISA. Data are means±SEM (n=3).
To evaluate the advantage of positive transferrin-modified aptamers over their negative transferrin-modified counterparts in brain uptake, the biodistribution of aptamers with four various structures (transferrin+/EpCAM+, transferrin+/EpCAM−, transferrin−/EpCAM+, transferrin−/EpCAM−) were studied at 30 min and 60 min after a single i.v. injection of these agents at a dosage of 40 nmol/Kg into NOD/SCID mice.

[2] = In vivo fluorescent imaging after tail vein injection; details: 2 nmole via tail vein, Xenogen IVIS Lumina II

Substance: 5′-GC GCG GTA C CG CGC TA ACG G AT TCC TTT T CC GT-3′ [aptamer 6]
- Uptake in brain compared with transferrin−/EpCAM− ([1]; 30 min after administration): statistically significantly higher
- Uptake in brain compared with transferrin−/EpCAM− ([1]; 1 h after injection): no gross difference
- Fluorescent signal strength [2]: 1.25×10^10
